This data set can be described thus: Pharmacokinetic characteristics study in mice (plasma, LC-MS/MS). The note with it: C57BL/6 male mice; for Bioavailability: intragastric vs intravenous administration; for Exposure: plasma, intravenous or oral (intragastric) administration. The protocol: Experimental Example 2: Pharmacokinetic Characteristics Study
C57BL/6 male mice were used in this study. The drug concentration in the plasma of mice subjected to intravenous or oral administration of the test compound at different time points were quantitatively determine by LC/MS/MS method, respectively, in order to evaluate the pharmacokinetic characteristics of the tested drugs in mice.
A clear solution of the test compound was injected into C57BL/6 mice via the tail vein (overnight fasting, 7-10 weeks old), and the test compound was intragastrically administered to C57BL/6 mice (overnight fasting, 7-10 weeks old). 30 μL of the blood was collected from the jugular vein or the tail vein of the animals 0.0833, 0.25, 0.5, 1, 2, 4, 6, 8 and 24 hours after administration, and placed in the anticoagulant tube containing EDTA-K2, followed by centrifugation at 4° C. for 15 minutes to collect the plasma. The plasma concentration was determined by LC-MS/MS. The pharmacokinetic parameters were calculated by the non-compartment model linear logarithmic trapezoidal method using WinNonlin™ Version 6.3 (Pharsight, Mountain View, Calif.) pharmacokinetic software.

For `Cc1cc(F)c(C(=O)Nc2cccc(-c3nnc4n3CCC[C@H]4O)n2)cc1-n1cnc(C2CC2)c1`, the Bioavailability worked out at 102% and the “Exposure” value was 53.367 µM·h.

Consider `Cc1cc(F)c(C(=O)Nc2cccc(-c3nnc4n3CCC[C@@H]4O)n2)cc1-n1cnc(C2CC2)c1`, for which the Bioavailability came out at 165% and the “Exposure” value worked out at 59.396 µM·h.

Values taken from patent US11040968B2, “Pyridine derivative as ASK1 inhibitor and preparation method and use thereof” (FUJIAN COSUNTER PHARMACEUTICAL CO., LTD., priority 2017, dated 2021).
